This note sets out measurements from US20080019949A1, “DIFFERENTIATION OF STEM CELLS FROM UMBILICAL CORD MATRIX INTO […] CELLS” (UNIVERSITY OF KANSAS, priority 2006, published 2008).

This data set concerns differentiated HUCM cells (hepatocyte-like cells).

Turning to `CO[C@H]1/C=C/O[C@@]2(C)Oc3c(C)c(O)c4c(O)c(c(/C=N/N5CCN(C)CC5)c(O)c4c3C2=O)NC(=O)/C(C)=C\C=C\[C@H](C)[C@H](O)[C@@H](C)[C@@H](O)[C@@H](C)[C@H](OC(C)=O)[C@@H]1C` [RIF, rifampicin], the “PXR expression (RT-PCR)” value is “induced”.
